# Experimental data from US7045617B2, “Bisbubstrate inhibitors of kinases” (priority 2000, dated 2006).
# The chains behind the UniProt entries cited, without tags or fusion partners. Residues count along the entry.
# UniProt P06213, 1005-1310 limits assumed: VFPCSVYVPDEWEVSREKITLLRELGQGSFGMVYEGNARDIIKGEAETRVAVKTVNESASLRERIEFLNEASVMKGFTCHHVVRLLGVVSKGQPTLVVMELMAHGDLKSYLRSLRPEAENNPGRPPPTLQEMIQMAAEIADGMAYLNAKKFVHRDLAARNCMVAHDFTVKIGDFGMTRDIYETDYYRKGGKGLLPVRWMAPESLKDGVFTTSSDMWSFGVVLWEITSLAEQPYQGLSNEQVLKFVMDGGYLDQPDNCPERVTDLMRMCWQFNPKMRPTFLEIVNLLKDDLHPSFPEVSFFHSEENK
# pIC50: −log10 of the molar value.
# Molecular target: activated recombinant IRK (insulin receptor kinase) (Homo sapiens, UniProt P06213)
# Test: Steady-state kinetic analysis of IRK inhibition (kinase assay)
# Type: biochemical
# Experimental: FIG. 2. […] Assays were carried out using activated recombinant IRK as described previously. 6 a, E/V vs. 1/ATP in the presence of varying. Conditions: fixed IRS727 concentration ([…]), 20 mM MgCl2, 0.5 mM DTT, 6 nM IRK, 0.05% bovine serum albumin, Tris-Acetate pH 7, 10 min reaction time. b, E/V vs. 1/IRS727 in the presence of varying. Conditions same as for a except fixed ATP ([…]), 8 nM IRK and 5 min reaction time.
# v=Vm(S)/[Km(1+I/Ki)+S]; v=initial velocity, Vm=maximal velocity, S=substrate concentration, Km=Michaelis constant. […] Conditions: Incubation of […] +/−5 mM 2 for 10 min in reaction buffer (20 mM MgCl2, 0.5 mM DTT, 0.05% BSA, 50 mM Tris-Acetate, pH 7) then dilute 1:50 into reaction buffer containing 1 mM ATP and […] peptide6 IRS939 and measure conversion by HPLC at times shown. To determine koff, data were fit to the equation^17: […]
# Assays were carried out using activated recombinant IRK as described previously^6. For E/V vs. 1/ATP plot the conditions were: […] IRS727 concentration, 20 mM MgCl2, 0.5 mM DTT, 6 nM IRK, 0.05% bovine serum albumin, 50 mM Tris-Acetate pH 7, 10 min reaction time. For E/V vs. 1/IRS727 in the conditions were the same except fixed ATP ([…]) was employed, 8 nM IRK and 5 min reaction time.
# v=Vm(S)/[Km(1+I/Ki)+S]; v=initial velocity, Vm=maximal velocity, S=substrate concentration, Km=Michaelis constant.
smiles,measurement,value
CSCC[C@H](NC(=O)[C@H](Cc1ccc(NC(=O)CSP(=O)(O)OP(=O)(O)OP(=O)(O)OC[C@H]2O[C@@H](n3cnc4c(N)ncnc43)[C@H](O)[C@@H]2O)cc1)NC(=O)[C@H](CC(=O)O)NC(=O)CNC(=O)[C@@H](NC(=O)[C@H](C)NC(=O)[C@@H]1CCCN1C(=O)[C@H](CC(C)C)NC(=O)[C@H](CCCCN)NC(=O)[C@H](CCCCN)NC(=O)[C@H](CCCCN)NC(C)=O)[C@@H](C)O)C(=O)N[C@@H](CC(N)=O)C(=O)N[C@@H](CCSC)C(=O)N[C@@H](CO)C(=O)N1CCC[C@H]1C(=O)N[C@H](C(=O)NCC(=O)N[C@@H](CC(=O)O)C(=O)O)C(C)C [Compound 2],pIC50,~5.00
